# Only a part is listed here, and it is no random draw. Results filed as inconclusive are left out. Activity calls are given as the source filed them. The call rests on the fitted dose curve; in most records, active means well fitted inhibition curve with a large enough effect; inconclusive means small, poorly fitted or top-dose-only effect, or effect the other way; inactive means flat fitted curve, though single readings scatter.
# Protein sequences, listed by entry. Tags and fused reporters are not part of them.
# UniProt O00255, whole entry, looked up: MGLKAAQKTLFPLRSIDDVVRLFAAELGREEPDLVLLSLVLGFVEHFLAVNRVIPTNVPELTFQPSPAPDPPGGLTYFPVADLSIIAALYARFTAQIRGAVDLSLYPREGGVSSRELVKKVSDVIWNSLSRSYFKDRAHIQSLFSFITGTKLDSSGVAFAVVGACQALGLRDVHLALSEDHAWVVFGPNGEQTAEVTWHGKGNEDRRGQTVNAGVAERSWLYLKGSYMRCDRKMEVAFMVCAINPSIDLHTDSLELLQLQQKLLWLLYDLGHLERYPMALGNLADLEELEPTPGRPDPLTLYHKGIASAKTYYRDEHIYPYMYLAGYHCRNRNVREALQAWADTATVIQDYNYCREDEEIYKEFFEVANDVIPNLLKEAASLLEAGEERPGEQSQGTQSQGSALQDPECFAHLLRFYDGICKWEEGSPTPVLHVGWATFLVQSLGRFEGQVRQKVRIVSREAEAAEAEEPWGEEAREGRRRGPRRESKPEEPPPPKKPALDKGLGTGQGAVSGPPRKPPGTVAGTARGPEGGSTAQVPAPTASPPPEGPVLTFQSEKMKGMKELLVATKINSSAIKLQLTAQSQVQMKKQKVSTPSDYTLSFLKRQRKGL
# Molecular target: Menin (Homo sapiens) (UniProt O00255)
# Experiment: Confirmation of Inhibitors Targeting the Menin-MLL Interaction in MLL Related Leukemias: Confirmation in an HTRF (commercial TR-FRET) Assay using His-tagged menin and biotin-labeled MLL peptide
# Settings: His-menin / biotin-MLL peptide binding; at 126 µM (top of the series)
# On the % scale 0 is the no-effect control and ±100 the full control effect.
smiles,measurement,value
O=[As](O)(c1cccs1)c1cccs1,"activity change, negative = inhibition",inactive: 4.13%

# — PubChem BioAssay AID2778 (National Center for Advancing Translational Sciences (NCATS), 2010)
